Source: patent US11199553B2, “25-OH vitamin D derivatives for determining vitamin D metabolites” (ORGENTEC D[…], priority 2013, dated 2021)

Conditions: vitamin D-free serum matrix, 24-hour incubation at 37° C.; VD1 compared with VD2

Substance	serum stability (in words)
3α-[α-biotinamido-ω-dodeca(ethylene glycol)-amido]-25-hydroxy-deoxyvitamin D3 [VD1]	high serum stability
3β-3′[α-biotinamido-ω-dodeca(ethylene glycol)-amido]amidopropyl-ether-25-hydroxy-vitamin D3 [VD2, reference compound]	significantly lower serum stability
